Consider 67 compounds from patent US8263592B2, “Equilibrative nucleoside transporter ENT1 inhibitors” (Janssen Pharmaceutica NV, priority 2007, dated 2012).

Sequences of proteins named here, by UniProt entry; tags and fusion partners are left off.
UniProt Q99808, whole entry: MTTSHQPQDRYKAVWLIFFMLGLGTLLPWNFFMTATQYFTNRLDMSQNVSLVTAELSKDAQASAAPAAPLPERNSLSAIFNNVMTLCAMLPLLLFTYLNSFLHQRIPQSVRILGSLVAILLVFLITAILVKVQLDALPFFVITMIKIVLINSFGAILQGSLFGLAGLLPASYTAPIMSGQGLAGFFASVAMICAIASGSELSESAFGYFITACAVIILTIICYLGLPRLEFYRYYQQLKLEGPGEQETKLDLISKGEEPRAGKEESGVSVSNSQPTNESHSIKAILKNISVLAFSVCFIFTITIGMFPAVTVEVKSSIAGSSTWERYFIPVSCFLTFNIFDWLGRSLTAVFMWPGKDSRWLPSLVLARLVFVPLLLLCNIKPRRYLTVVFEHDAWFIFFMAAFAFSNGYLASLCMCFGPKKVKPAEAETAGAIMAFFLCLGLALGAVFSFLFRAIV

The assay addresses human ENT1 transporter (Homo sapiens, UniProt Q99808). The assay is described as follows: hENT1-NBMPR-ERYTH binding assay ([3H]NBMPR, human erythrocytes). Particulars: [3H]NBMPR 1 nM, washed human red blood cells 1:200, 30 minutes at room temperature; pIC50=-log(IC50).
As for `COCCCNc1cc2c(cc1Cl)C=CC1(CCN(CCNC(=O)c3c(Cl)cccc3Cl)CC1)O2`, the “pIC50 values for ENT1 transporter inhibition” value stood at 9.33.

On to `COCCCNc1cc(Cl)cc2c1OC1(CCN(CCNC(=O)c3c(Cl)cccc3Cl)CC1)NC2=O`, for which the “pIC50 values for ENT1 transporter inhibition” value was determined as 7.56. For `CCOc1ccc2c(c1)C(=O)CC1(CCN(CCNC(=O)c3c(Cl)cccc3Cl)CC1)O2` the value was 7.15; for `O=C1NC2(CCN(CCNC(=O)c3c(Cl)cccc3Cl)CC2)Oc2c1ccc(NC1CCCC1)c2Cl`, 8.31.

In the case of `O=C1NC2(CCN(CCNC(=O)c3c(Cl)cccc3Cl)CC2)Oc2cc(NC3CCCC3)c(Cl)cc21`, the “pIC50 values for ENT1 transporter inhibition” value was 9.00. With `Cc1cc2c(c(N(C)C)c1)OC1(CCN(CCNC(=O)c3c(C)cccc3C)CC1)NC2=O`, the “pIC50 values for ENT1 transporter inhibition” value is reported as 7.36. In the case of `O=C1NC2(CCN(CCNC(=O)c3c(Cl)cccc3Cl)CC2)Oc2cc(OC3CCCC3)c(Cl)cc21`, the “pIC50 values for ENT1 transporter inhibition” value turned out to be 9.10. For `Cc1cccc(C)c1C(=O)NCCN1CCC2(CC1)NC(=O)c1ccc(NC3CCOCC3)c(Cl)c1O2` the value was 6.68. For `CC(=O)N1CCC(Oc2cc3c(cc2C)C(=O)CC2(CCN(CCNC(=O)c4c(Cl)cccc4Cl)CC2)O3)CC1` the value was 9.22; for `Cc1cccc(C)c1C(=O)NCCN1CCC2(CC1)NC(=O)c1cc(Cl)c(NC3CCNCC3)cc1O2`, 6.57. With `Cc1cccc(C)c1C(=O)NCCN1CCC2(CC1)NC(=O)c1cc(Cl)c(NC3CCOCC3)cc1O2`, the “pIC50 values for ENT1 transporter inhibition” value worked out at 7.18.

Regarding `O=C1CC2(CCN(CCNC(=O)c3c(Cl)cccc3Cl)CC2)Oc2c(Br)cc(Cl)cc21`, the “pIC50 values for ENT1 transporter inhibition” value is 8.32. For `Cc1cc2c(cc1OC1CCCC1)OC1(CCN(CCNC(=O)c3c(Cl)cccc3Cl)CC1)CC2=O` the value was 9.31; for `O=C1NC2(CCN(CCNC(=O)c3c(Cl)cccc3Cl)CC2)Oc2cc(NC3CCCC3)ccc21`, 8.39; for `Cc1cc2c(c(N(C)C)c1)OC1(CCN(CCNC(=O)c3c(Cl)cccc3Cl)CC1)NC2=O`, 7.16. Under `Cc1cc2c(cc1NC(=O)CC1CCCC1)OC1(CCN(CCNC(=O)c3c(Cl)cccc3Cl)CC1)CC2=O` stands 8.175; under `Cc1cccc(C)c1C(=O)NCCN1CCC2(CC1)NC(=O)c1cc(Cl)cc(N)c1O2`, 5.94. For the compound `Cc1cccc(C)c1C(=O)NCCN1CCC2(CC1)CC(=O)c1cc(Cl)c(OC(C)C)cc1O2`, the “pIC50 values for ENT1 transporter inhibition” value stood at 7.92. For `COc1cc(OC)c2c(c1)OC1(CCN(CCNC(=O)c3c(Cl)cccc3Cl)CC1)CC2=O` the value was 6.40; for `O=C1CC2(CCN(CCNC(=O)c3c(Cl)cccc3Cl)CC2)Oc2ccc(F)cc21`, 6.81; for `CC(=O)N(C)c1cc2c(cc1C)C(=O)CC1(CCN(CCNC(=O)c3c(Cl)cccc3Cl)CC1)O2`, 8.10. For `COCCCNc1ccc2c(c1Cl)OC1(CCN(CCNC(=O)c3c(C)cccc3C)CC1)NC2=O` the value was 7.895.

For `O=C(NCCN1CCC2(CC1)CC(=O)c1c(cccc1N1CCCC1)O2)c1c(Cl)cccc1Cl`, the “pIC50 values for ENT1 transporter inhibition” value is 7.88. `CC(=O)N1CCC(Oc2cc(Cl)cc3c2OC2(CCN(CCNC(=O)c4c(Cl)cccc4Cl)CC2)NC3=O)CC1`: the “pIC50 values for ENT1 transporter inhibition” value stood at 7.45. Under `CC(=O)N1CCC(Nc2cc(C)cc3c2OC2(CCN(CCNC(=O)c4c(Cl)cccc4Cl)CC2)NC3=O)CC1` stands 8.375; under `CCOc1ccc2c(c1C)OC1(CCN(CCNC(=O)c3c(Cl)cccc3Cl)CC1)CC2=O`, 8.79; under `COc1ccc2c(c1OC)OC1(CCN(CCNC(=O)c3c(Cl)cccc3Cl)CC1)CC2=O`, 7.75.

`Cc1cccc(C)c1C(=O)NCCN1CCC2(CC1)NC(=O)c1ccc(N3CCOCC3)c(Cl)c1O2`: the “pIC50 values for ENT1 transporter inhibition” value came to 6.98.

For `Cc1cc(OC(C)C)c2c(c1)C(=O)CC1(CCN(CCNC(=O)c3c(Cl)cccc3Cl)CC1)O2`, the “pIC50 values for ENT1 transporter inhibition” value was found to be 8.44. For `Cc1cccc(C)c1C(=O)NCCN1CCC2(CC1)CC(=O)c1cc(Cl)c(NC3CCOCC3)cc1O2` the value was 7.55; for `Nc1cc2c(cc1Cl)C=CC1(CCN(CCNC(=O)c3c(Cl)cccc3Cl)CC1)O2`, 8; for `CC(=O)N1CCC(Nc2ccc3c(c2Cl)OC2(CCN(CCNC(=O)c4c(C)cccc4C)CC2)NC3=O)CC1`, 5.76. For `O=C1NC2(CCN(CCNC(=O)c3c(Cl)cccc3Cl)CC2)Oc2c(NC3CCOCC3)cc(Cl)cc21` the value was 8.44; for `Cc1cc(NC(=O)OC(C)(C)C)c2c(c1)C(=O)CC1(CCN(CCNC(=O)c3c(Cl)cccc3Cl)CC1)O2`, 8.73.

As to `CC(=O)N1CCC(Oc2cc3c(cc2Cl)C(O)CC2(CCN(CCNC(=O)c4c(Cl)cccc4Cl)CC2)O3)CC1` (single isomer, unassigned) [104], the “pIC50 values for ENT1 transporter inhibition” value worked out at 9.09. For `CC(=O)N1CCC(C(=O)Nc2cc3c(cc2C)C(=O)CC2(CCN(CCNC(=O)c4c(Cl)cccc4Cl)CC2)O3)CC1` the value was 7.51. Under `CN(C)c1cc2c(cc1Cl)C(=O)NC1(CCN(CCNC(=O)c3c(Cl)cccc3Cl)CC1)O2` stands 8.48; under `CC(C)Oc1cc(Cl)cc2c1OC1(CCN(CCNC(=O)c3c(Cl)cccc3Cl)CC1)CC2=O`, 7.945; under `Cc1cc(N)c2c(c1)C(=O)NC1(CCN(CCNC(=O)c3c(Cl)cccc3Cl)CC1)O2`, 6.6. Under `O=C1CC2(CCN(CCNC(=O)c3c(Cl)cccc3Cl)CC2)Oc2cc(NC3CCNCC3)c(Cl)cc21` stands 8.17. With `Cc1cc2c(cc1N(C)C(=O)C1CCCC1)OC1(CCN(CCNC(=O)c3c(Cl)cccc3Cl)CC1)CC2=O`, the “pIC50 values for ENT1 transporter inhibition” value is listed as 8.335. For `CNc1cc2c(cc1C)C(=O)CC1(CCN(CCNC(=O)c3c(Cl)cccc3Cl)CC1)O2` the value was 8.26; for `CC(=O)N1CCC(Nc2cc3c(cc2Cl)CCC2(CCN(CCNC(=O)c4c(Cl)cccc4Cl)CC2)O3)CC1`, 8.92. Turning to `CC(=O)N1CCC(Nc2cc3c(cc2C)CCC2(CCN(CCNC(=O)c4c(Cl)cccc4Cl)CC2)O3)CC1`, the “pIC50 values for ENT1 transporter inhibition” value is 8.055. Under `CC(=O)N1CCC(Nc2cc3c(cc2Cl)C(O)CC2(CCN(CCNC(=O)c4c(Cl)cccc4Cl)CC2)O3)CC1` (stereo not shown) stands 8.39. Under `O=C(NCCN1CCC2(CC1)CC(O)c1cc(Cl)c(NC3CCCC3)cc1O2)c1c(Cl)cccc1Cl` (stereo not shown) stands 8.55; under `CC(C)Oc1ccc2c(c1)OC1(CCN(CCNC(=O)c3c(Cl)cccc3Cl)CC1)NC2=O`, 8.50; under `O=C1NC2(CCN(CCNC(=O)c3c(Cl)cccc3Cl)CC2)Oc2c1ccc(OC1CCCC1)c2Cl`, 8.49. Under `CC(=O)N1CCC(Oc2cc3c(cc2Cl)C(O)CC2(CCN(CCNC(=O)c4c(Cl)cccc4Cl)CC2)O3)CC1` (single isomer, unassigned) [105] stands 7.87; under `O=C1CC2(CCN(CCNC(=O)c3c(Cl)cccc3Cl)CC2)Oc2c1ccc(NCC1CCCC1)c2Cl`, 8.82. Take `Cc1cc(NC2CCOCC2)c2c(c1)C(=O)NC1(CCN(CCNC(=O)c3c(C)cccc3C)CC1)O2`: the “pIC50 values for ENT1 transporter inhibition” value is listed as 7.33.

Turning to `Cc1cccc(C)c1C(=O)NCCN1CCC2(CC1)CC(=O)c1cc(Cl)c(OC3CCCC3)cc1O2`, the “pIC50 values for ENT1 transporter inhibition” value amounted to 9.30. For `O=C(NCCN1CCC2(C=Cc3cc(Cl)c(OC4CCCC4)cc3O2)CC1)c1c(Cl)cccc1Cl` the value was 9.29; for `CN1CCC(Oc2cc3c(cc2Cl)C(=O)CC2(CCN(CCNC(=O)c4c(Cl)cccc4Cl)CC2)O3)CC1`, 8.26. Under `Cc1cc(NC2CCCC2)c2c(c1)C(=O)NC1(CCN(CCNC(=O)c3c(Cl)cccc3Cl)CC1)O2` stands 8.74. Turning to `O=C1NC2(CCN(CCNC(=O)c3c(Cl)cccc3Cl)CC2)Oc2cc(-n3ccnc3)ccc21`, the “pIC50 values for ENT1 transporter inhibition” value was 6.91.

Turning to `COCCCNc1cc2c(cc1Cl)C(=O)CC1(CCN(CCNC(=O)c3c(Cl)cccc3Cl)CC1)O2`, the “pIC50 values for ENT1 transporter inhibition” value is 9.22. For `Cc1cccc(C)c1C(=O)NCCN1CCC2(CC1)NC(=O)c1cc(Cl)c(N3CCOCC3)cc1O2` the value was 7.26; for `CN(C)c1cc(Cl)cc2c1OC1(CCN(CCNC(=O)c3c(Cl)cccc3Cl)CC1)NC2=O`, 7.52; for `CC(C)Oc1cc2c(cc1Cl)C(O)CC1(CCN(CCNC(=O)c3c(Cl)cccc3Cl)CC1)O2` (stereo not shown), 8.81. Under `Cc1cc2c(cc1C)C(=O)CC1(CCN(CCNC(=O)c3c(Cl)cccc3Cl)CC1)O2` stands 7.69; under `Cc1cccc(C)c1C(=O)NCCN1CCC2(CC1)NC(=O)c1cc(Cl)c(OC3CCNCC3)cc1O2`, 6.91; under `O=C(NCCN1CCC2(CC1)CC(O)c1cc(Cl)c(OC3CCCC3)cc1O2)c1c(Cl)cccc1Cl` (stereo not shown), 8.87. For `Cc1cccc(C)c1C(=O)NCCN1CCC2(CC1)NC(=O)c1cc(Cl)c(OC3CCCC3)cc1O2` the value was 7.93; for `Cc1cc(NC(C)C)c2c(c1)C(=O)NC1(CCN(CCNC(=O)c3c(Cl)cccc3Cl)CC1)O2`, 8.275. Consider `Cc1cccc(C)c1C(=O)NCCN1CCC2(CC1)NC(=O)c1cc(Cl)cc(OC(C)C)c1O2`, for which the “pIC50 values for ENT1 transporter inhibition” value is reported as 6.29. Under `COc1cc2c(cc1OC)C(=O)CC1(CCN(CCNC(=O)c3c(Cl)cccc3Cl)CC1)O2` stands 6.19.
